The text below walks through data of US8431529B2, “Bi-dentate compounds as kinase inhibitors” (Sanford-Burnham Medical Research Institute, priority 2007, dated 2013).

Chains of the proteins cited; added tags and fusions are not shown.
UniProt P45983, whole entry: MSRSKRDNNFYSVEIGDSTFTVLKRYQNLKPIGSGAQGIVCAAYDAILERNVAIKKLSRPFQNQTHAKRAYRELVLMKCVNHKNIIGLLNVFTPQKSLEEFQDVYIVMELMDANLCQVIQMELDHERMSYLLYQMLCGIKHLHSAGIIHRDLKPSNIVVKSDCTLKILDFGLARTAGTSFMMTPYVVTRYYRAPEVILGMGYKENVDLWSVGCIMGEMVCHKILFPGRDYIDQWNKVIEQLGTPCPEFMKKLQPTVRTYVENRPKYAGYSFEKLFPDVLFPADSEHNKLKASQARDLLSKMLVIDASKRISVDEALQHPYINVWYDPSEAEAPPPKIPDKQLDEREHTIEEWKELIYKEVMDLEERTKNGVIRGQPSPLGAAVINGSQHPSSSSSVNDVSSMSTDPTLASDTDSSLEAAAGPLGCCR

This test deals with JNK1 (Homo sapiens, UniProt P45983). The test can be described thus: LanthaScreen TR-FRET in vitro kinase activity assay, JNK1 phosphorylation of ATF2. In kind it is biochemical. To be noted: read-out: IC50 (μM), Kinase Assay; Table 2.
With `O=C(NCCCCCNC(=O)c1ccc2ccccc2c1)c1ccc(-c2n[nH]c3ccccc23)cc1`, the IC50 amounted to 4.8 µM.
The result for `O=C(CCC12CC3CC(CC(C3)C1)C2)NCCCCCNC(=O)c1ccc(-c2n[nH]c3ccccc23)cc1` reads 2.2 µM; that for `CC1=C(/C=C/C(C)=C/C=C/C(C)=C/C(=O)NCCCCCNC(=O)c2ccc(-c3n[nH]c4ccccc34)cc2)C(C)(C)CCC1`, 0.75 µM.
For `O=C(NCCCCCNC(=O)C12CC3CC(CC(C3)C1)C2)c1ccc(-c2n[nH]c3ccccc23)cc1` the value was 5 µM; for `CC(C)(C)c1cc(C(C)(C)C)c2oc(C(=O)NCCCCCNC(=O)c3ccc(-c4n[nH]c5ccccc45)cc3)cc(=O)c2c1`, 1 µM; for `NCCCCCNC(=O)c1ccc(-c2n[nH]c3ccccc23)cc1`, 6.3 µM.
For `CC12CC3(C)CC(C)(C1)CC(C(=O)NCCCCCNC(=O)c1ccc(-c4n[nH]c5ccccc45)cc1)(C2)C3` the value was 4.7 µM; for `O=C(NCCCNC(=O)c1ccc2ncccc2c1)c1ccc(-c2n[nH]c3ccccc23)cc1`, 5.7 µM.
